The values that follow come from ChEMBL document CHEMBL3994651, “Physapubescin, a natural withanolide as a kidney-type glutaminase (KGA) inhibitor” (Bioorg Med Chem Lett, 2017).

Substrate in data set [1]: CC(=O)O[C@H]1C[C@H]([C@H](C)[C@H]2C[C@]3(C)O[C@]3(C)[C@H](O)O2)[C@@]2(C)CC[C@H]3[C@@H](C[C@@H]4O[C@]45[C@@H](O)C=CC(=O)[C@]35C)[C@H]12
The following applies: Homo sapiens; 2.5 uM.

Substrate in data set [2]: CC(=O)O[C@H]1C[C@H]([C@H](C)[C@H]2C[C@]3(C)O[C@]3(C)[C@H](O)O2)[C@@]2(C)CC[C@H]3[C@@H](C[C@@H]4O[C@]45[C@@H](O)C=CC(=O)[C@]35C)[C@H]12
Conditions: Homo sapiens; 10 uM.

Substrate in data set [3]: CC(=O)O[C@H]1C[C@H]([C@H](C)[C@H]2C[C@]3(C)O[C@]3(C)[C@H](O)O2)[C@@]2(C)CC[C@H]3[C@@H](C[C@@H]4O[C@]45[C@@H](O)C=CC(=O)[C@]35C)[C@H]12
The following applies: Homo sapiens; 5 uM.

Substrate in data set [4]: CC(=O)O[C@H]1C[C@H]([C@H](C)[C@H]2C[C@]3(C)O[C@]3(C)[C@H](O)O2)[C@@]2(C)CC[C@H]3[C@@H](C[C@@H]4O[C@]45[C@@H](O)C=CC(=O)[C@]35C)[C@H]12
The following applies: Homo sapiens; 20 uM.

Substrate in data set [5]: CC(=O)O[C@H]1C[C@H]([C@H](C)[C@H]2C[C@]3(C)O[C@]3(C)[C@H](O)O2)[C@@]2(C)CC[C@H]3[C@@H](C[C@@H]4O[C@]45[C@@H](O)C=CC(=O)[C@]35C)[C@H]12
The following applies: Homo sapiens; 5 uM. This is another data set of the same source.

Substrate in data set [6]: CC(=O)O[C@H]1C[C@H]([C@H](C)[C@H]2C[C@]3(C)O[C@]3(C)[C@H](O)O2)[C@@]2(C)CC[C@H]3[C@@H](C[C@@H]4O[C@]45[C@@H](O)C=CC(=O)[C@]35C)[C@H]12
The following applies: Homo sapiens; 10 uM. The source holds these as a separate data set.

Substrate in data set [7]: CC(=O)O[C@H]1C[C@H]([C@H](C)[C@H]2C[C@]3(C)O[C@]3(C)[C@H](O)O2)[C@@]2(C)CC[C@H]3[C@@H](C[C@@H]4O[C@]45[C@@H](O)C=CC(=O)[C@]35C)[C@H]12
The following applies: Homo sapiens; 20 uM. This is another data set of the same source.

Substrate in data set [8]: CC(=O)O[C@H]1C[C@H]([C@H](C)[C@H]2C[C@]3(C)O[C@]3(C)[C@H](O)O2)[C@@]2(C)CC[C@H]3[C@@H](C[C@@H]4O[C@]45[C@@H](O)C=CC(=O)[C@]35C)[C@H]12
Conditions: Homo sapiens; 2.5 uM. The source holds these as a separate data set.

B1: Glutaminase kidney isoform, mitochondrial (Homo sapiens), O94925 (protein)
chain: MMRLRGSGMLRDLLLRSPAGVSATLRRAQPLVTLCRRPRGGGRPAAGPAAAARLHPWWGGGGWPAEPLARGLSSSPSEILQELGKGSTHPQPGVSPPAAPAAPGPKDGPGETDAFGNSEGKELVASGENKIKQGLLPSLEDLLFYTIAEGQEKIPVHKFITALKSTGLRTSDPRLKECMDMLRLTLQTTSDGVMLDKDLFKKCVQSNIVLLTQAFRRKFVIPDFMSFTSHIDELYESAKKQSGGKVADYIPQLAKFSPDLWGVSVCTVDGQRHSTGDTKVPFCLQSCVKPLKYAIAVNDLGTEYVHRYVGKEPSGLRFNKLFLNEDDKPHNPMVNAGAIVVTSLIKQGVNNAEKFDYVMQFLNKMAGNEYVGFSNATFQSERESGDRNFAIGYYLKEKKCFPEGTDMVGILDFYFQLCSIEVTCESASVMAATLANGGFCPITGERVLSPEAVRNTLSLMHSCGMYDFSGQFAFHVGLPAKSGVAGGILLVVPNVMGMMCWSPPLDKMGNSVKGIHFCHDLVSLCNFHNYDNLRHFAKKLDPRREGGDQRVKSVINLLFAAYTGDVSALRRFALSAMDMEQRDYDSRTALHVAAAEGHVEVVKFLLEACKVNPFPKDRWNNTPMDEALHFGHHDVFKILQEYQVQYTPQGDSDNGKENQTVHKNLDGLL
In the case of B1, the Vmax (optical density/minute) in data set [1] worked out at 0.0619; in data set [4] it was 0.0232; in data set [5], 0.0529; in data set [6] it was 0.0403. For the same protein, the Michaelis-Menten constant (Km) was 3.59 mM in data set [2], 2.73 mM in data set [3], 5.83 mM in data set [7] and 2.58 mM in data set [8].
